pIC50: −log10 of the molar value. Bounds are passed on as bounds.

By UniProt entry, the sequences of proteins in these tests, tags left out.
UniProt Q9NWZ3, whole entry: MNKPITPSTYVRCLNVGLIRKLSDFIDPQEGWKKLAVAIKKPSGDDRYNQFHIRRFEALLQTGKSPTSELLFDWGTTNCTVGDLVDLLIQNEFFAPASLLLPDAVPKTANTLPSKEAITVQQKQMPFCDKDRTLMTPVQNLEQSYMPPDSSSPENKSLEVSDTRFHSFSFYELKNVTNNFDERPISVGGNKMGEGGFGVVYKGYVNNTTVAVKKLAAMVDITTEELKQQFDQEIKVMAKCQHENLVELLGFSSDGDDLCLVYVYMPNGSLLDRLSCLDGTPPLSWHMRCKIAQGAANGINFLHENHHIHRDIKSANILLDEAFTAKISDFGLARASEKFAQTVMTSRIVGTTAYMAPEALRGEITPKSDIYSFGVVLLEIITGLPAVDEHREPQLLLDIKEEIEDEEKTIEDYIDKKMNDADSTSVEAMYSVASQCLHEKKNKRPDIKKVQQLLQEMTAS

For this experiment, the target named is IRAK4 (Homo sapiens, UniProt Q9NWZ3). Description: IRAK4 Enzymatic Assay. Conditions: read-out: IRAK4 IC50; His-TEV-IRAK4 20 ng/well, ATP 2 μM, STK1-biotin peptide 300 nM, 3 hours at 30° C., FlashPlate radioactivity. Here is the method: IRAK4 is a human purified recombinant enzyme (His-TEV-IRAK1 (194-712)
IRAK4 hydrolyses ATP, autophosphorylates and phosphorylates a Serine/Threonine generic peptidic substrate (STK: 61ST1BLC from CisBio International based in Bagnols/Cèze FR).
Measurement of IRAK-4 inhibition is performed in streptavidin coated 384 well FlashPlate (PerkinElmer #SMP410A). His-TEV-IRAK4 (20 ng/well), ATP (2 μM, [^33P]ATP 0.25 μCi/well), STK1-biotin peptide (300 nM) and compounds in DMSO (range of concentrations from 20 μM to 1nM) or controls (2% DMSO) are incubated for 3 hours at 30° C. in assay buffer: Hepes pH7.0 50 mM, Fatty acid-free BSA 0.1%, Dithiothreitol DTT 2 mM, MgCl2 10 mM, EGTA 0.5 mM, Tween-20 0.01%, MnCl2 5 mM.
Kinase reaction is stopped by addition of EDTA. Supernatant is discarded, plates are washed three times with 150 mM NaCl and radioactivity is then measured in a Microbeta Trilux reader.
With `COCC1COCCN1C(=O)Cn1cc(-c2cnc(-c3cccc(-c4cnn(C)c4)c3)nc2)cn1` (stereo not drawn), the pIC50 (usually −log10 of the IC50, conventionally taken in molar units) was 6.00 to 7.00. Consider `Cn1cc(-c2cccc(-c3ncc(-c4cnn(C5CCCSC5)c4)cn3)c2)cn1` (stereo not drawn), for which the negative-log IC50 (pIC50) was more than 7.00. The value for `Cn1cc(-c2cccc(-c3ncc(-c4cnn(C5CCOC6(CCOCC6)C5)c4)cn3)c2)cn1` (stereo not drawn) [Example 267, 5-[1-(1,9-Dioxa-spiro[5.5]undec-4-yl)-1H-pyrazol-4-yl]-2-[3-(1-methyl-1H-pyrazol-4-yl)-phenyl]-pyrimidine] was 6.00 to 7.00.

Source of the values: patent publication US9216991B2 (Ares Trading S.A., priority 2012, dated 2015).
